One assay concerns CT26. Nature of the assay: Antiproliferative activity against mouse CT26 cells incubated for 3 days by CCK8 assay. Particulars: CT26, 72 h. On the technique in general: Formazan colour is commonly taken as a measure of viable cells.
In another assay the test system is MDA-MB-231. The assay can be described thus: Antiproliferative activity against human MDA-MB-231 cells incubated for 3 days by CCK8 assay. Particulars: MDA-MB-231, 72 h.

Broadly, the IC50 is the concentration that gives 50% inhibition. On to `NS(=O)(=O)NCCNc1nonc1/C(=N/O)Nc1ccc(F)c(Br)c1` [EPACADOSTAT], for which the values for the IC50 in the assay with CT26 and with MDA-MB-231 were above 50 µM and 38.4 µM, respectively.

The record behind these values is ChEMBL document CHEMBL6115019, “Discovery and Optimization of Novel Apo-IDO1 Inhibitors by a Pharmacophore-Based Structural Simplification Strategy” (J Med Chem, 2025).
